# Ab-14 light chain CDR variants: yeast mating affinities

Data: MIT Lincoln Laboratory AlphaSeq set, Li et al. 2023, doi:10.1038/s41467-023-39022-2, as distributed in FLAb.

Target: peptide PDVDLGDISGINAS, taken from heptad repeat 2 (HR2) of SARS-CoV-2 spike.

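The starting antibody came from a phage panning campaign against this peptide. This is the validation round: designs drawn from the data on random variants, tested in the same kind of assay. Their group label is 14L_Rand (Rand: our label for a block that the file lists under HC and that is probably the random mutants of the ten best first-round binders). Affinity was read by AlphaSeq, a pooled yeast mating assay with surface-displayed partners. After mating in shaken culture at 30 °C for 16 h, diploids were selected and their barcode pairs sequenced. Scores were corrected for input abundance and mapped to Kd with protein pairs of known affinity run in the same pool. There are six technical replicates.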

Ab-14 is the parent antibody, in scFv form: VH, then three GGGGS repeats, then VL. The heavy chain is unchanged in all variants.
VH: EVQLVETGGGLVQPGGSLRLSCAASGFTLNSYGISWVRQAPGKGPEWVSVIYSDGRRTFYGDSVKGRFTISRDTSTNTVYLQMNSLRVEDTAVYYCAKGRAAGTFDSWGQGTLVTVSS
VL: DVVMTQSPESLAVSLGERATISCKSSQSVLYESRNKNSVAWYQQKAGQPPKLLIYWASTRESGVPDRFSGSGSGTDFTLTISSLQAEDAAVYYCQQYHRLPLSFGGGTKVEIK

Variants are written as CDR1, CDR2 and CDR3 of the light chain (limits as in the source). Parent: KSSQSVLYESRNKNSVA, WASTRES, QQYHRLPLS. Numbers give log10(Kd / nM), so 0 is 1 nM and 3 is 1 µM. Smaller is tighter. Replicates are averaged; those with no signal do not enter the mean. Where no diploid with the target was found in that replicate, the entry reads "nd": below detection, most likely a poor binder, though not proof of it. Nonspecific signal, from three strains lacking the peptide, appeared in 4% of pairings of all light chain designs, centred on 2.64 (5% of these signals below 1.59); values are not corrected for it. Also given: how often the same scFv was detected with the empty control strains. The range of this assay differs from that of the first round, and the authors advise against merging the two. The parent sequence was in this pool as ten entries: three were never detected, three once, and four in most replicates, with averages from 0.34 to 2.37. The authors' rule: three or more of the six replicates give a measured affinity, fewer mean a poor binder.

The variant KSSISYLYESRNTNSVA | EASTRES | HQYHRLPLS showed 0.68, 0.98, 0.76, 0.32, 0.57, 0.80 (mean 0.69; controls 0 of 18).
The variant KSSQSKLYESRNKNSVA | GASTRES | QQYHRLPYS showed nd, nd, 3.31, 5.14, nd, nd (mean 4.23; controls 6 of 18).
The variant KSSQSWLYESRNKNSVA | GASTHES | QQYHRLPLS showed -0.08, -0.21, 0.15, -0.47, 0.05, -0.17 (mean -0.12; controls 0 of 18).
The variant KSLQSVLYESRNKNSVA | HKRTRED | QQYHRLPLS showed nd, nd, nd, 1.48, nd, nd (controls 0 of 18).
The variant KSSQSFLYESRNKNSVV | GASTREE | QQYHRLTLS showed nd, nd, nd, nd, nd, nd (controls 0 of 18).
The variant KLRQSTLYESRNINSVV | WASTRES | QQYHRLPLS showed nd, nd, nd, nd, nd, 3.98 (controls 1 of 18).
The variant KFSQNVLYHSRTKNSVA | NRSTRES | QQYHRLPLS showed 0.67, 0.74, 0.66, 0.11, 0.43, 0.67 (mean 0.55; controls 2 of 18).
The variant HSSCSVLYESRNKNSVA | NASTRES | QQYHRLPLN showed 0.54, 0.82, 0.87, 0.85, 0.85, 0.75 (mean 0.78; controls 2 of 18).
The variant KLRQSTLYESSNKNSVA | WASTREN | QWYHRLPLS showed nd, nd, nd, nd, nd, nd (controls 0 of 18).
The variant KSLQSVLCESRNKNEVA | HASTRED | QQYHRLPLS showed nd, nd, nd, nd, nd, nd (controls 0 of 18).
The variant KSLQSVLYESRNKNSVA | HASTREQ | QQYHFLPWS showed 0.54, 0.27, 0.50, 0.31, 0.35, 0.39 (mean 0.39; controls 0 of 18).
The variant KSGQGVLYESRNKNSVA | GASTRES | MLYHRLPLS showed 0.98, 1.14, 1.27, 0.25, 0.83, 1.17 (mean 0.94; controls 1 of 18).
The variant KLRQSTVYESRNKNKVA | WASTRES | QQYHRMPLS showed 1.50, 1.21, 1.87, 2.87, 2.39, 1.16 (mean 1.83; controls 0 of 18).
The variant KLRQSTLYESRNKNSYA | WASTRES | QQYHRLALS showed nd, nd, nd, nd, nd, nd (controls 0 of 18).
The variant KSSQSWLYESHNKNSVK | GASTRES | QQYHRLPLS showed nd, nd, nd, nd, nd, nd (controls 0 of 18).
The variant KSSQSVLFESRNKNSVA | MASTRES | PQYHRLPLS showed 1.85, 1.23, 1.43, 1.40, 1.64, 1.61 (mean 1.53; controls 0 of 18).
The variant HESPSVDYESRNKNDVA | NASTRES | QQYHRLPLS showed 0.33, 0.38, 0.07, 0.06, 0.14, 0.39 (mean 0.23; controls 1 of 18).
The variant KSSQSVLFESRNKNQVA | DASTRES | QQNHRMPLS showed 2.75, 1.84, 1.01, 1.10, 0.86, 1.74 (mean 1.55; controls 0 of 18).
The variant KSSHSVLFESRNKNSVA | DASTRES | QQYHRLPLS showed 0.38, 0.09, 0.10, 0.12, 0.18, 0.19 (mean 0.18; controls 2 of 18).
The variant KSSISYLYESRNKNSVA | EASTRES | QYYHRLPLS showed 1.94, 1.59, 1.97, 2.02, 1.42, 1.50 (mean 1.74; controls 0 of 18).
The variant KSHISYLYESRNKNFVA | EASTRES | QQYHRLPLS showed 0.94, 0.75, 0.92, 0.64, 1.52, 1.58 (mean 1.06; controls 1 of 18).
The variant HSSPLVLYESRNKNHVE | NASTRES | QQYHRLPLS showed nd, nd, nd, nd, nd, nd (controls 0 of 18).
The variant KSGQGVLYESANKNSVA | GASTRES | QKYHRLPLS showed 0.66, 0.45, -0.02, 0.65, 0.34, 0.69 (mean 0.46; controls 0 of 18).
The variant EQMQSVLYESRNKNSVA | DAKTRES | QQYHRLPLS showed 1.03, 1.05, 1.02, 1.00, 1.07, 1.52 (mean 1.11; controls 1 of 18).
The variant KSHQSCLYESRNKNSVA | GASHRES | QWFHRLTLS showed nd, nd, nd, nd, nd, nd (controls 0 of 18).
The variant KSLQSVLYESRNKNSVA | HASTRED | QQYHRLPES showed nd, nd, nd, nd, nd, nd (controls 1 of 18).
The variant KFSQSVLYESRGKASVA | NASTRRS | QQYHRLPLS showed 1.17, 1.01, 0.80, 0.89, 0.83, 0.95 (mean 0.94; controls 1 of 18).
The variant CSSPSGLYESRNKNSVA | NASTRES | QQYHRLPLS showed nd, 1.25, 2.21, 0.77, 1.39, 0.74 (mean 1.27; controls 0 of 18).
The variant KPSQSFLYESRNKNSVA | GASTRES | QQYHRLTKS showed nd, nd, nd, nd, nd, nd (controls 0 of 18).
The variant KSLQSVLYESRNKNSVA | LASTRED | QQYHRLPLI showed nd, nd, nd, nd, 2.29, nd (controls 0 of 18).
The variant KSSQSWFYESRNKESVA | GASTRES | QQYHRLELV showed nd, 0.59, 0.35, 0.69, 1.88, 1.13 (mean 0.93; controls 0 of 18).
The variant KSLQSVLYESRNKCSGA | HASRRED | QQYHRLPLS showed nd, nd, nd, nd, nd, nd (controls 0 of 18).
The variant KSLQSVLYESRNKNSVA | HYSTRED | YNYPRLPLS showed nd, nd, nd, nd, nd, nd (controls 1 of 18).
The variant KSLFSVLYESRNKNSVA | HASTRED | QQYHRMPLS showed nd, nd, nd, nd, 1.04, 1.56 (mean 1.30; controls 0 of 18).
The variant KLRQSTLYESHNKNSVA | AASTRES | QVYHRLPLS showed 1.17, 1.02, 1.14, 1.30, 1.39, 1.62 (mean 1.27; controls 2 of 18).
The variant VSSPSVLYESRNKNSVA | NASTRWS | QQYHRLPLS showed 0.54, 0.70, 1.17, 0.70, 0.81, 0.70 (mean 0.77; controls 0 of 18).
The variant KLRQSTLYESRNKNSWA | WASTRES | QWYHRLPLS showed nd, nd, nd, nd, nd, nd (controls 2 of 18).
The variant KSSQSWLYESRNKNSVA | GASTRES | QVYHRLPLS showed 1.75, 1.58, 1.30, 1.78, 1.48, 1.43 (mean 1.55; controls 1 of 18).
The variant KLRQSELYESRNKFSVA | WASTRES | QQYHRLPLS showed nd, 1.71, 1.60, 3.08, 1.19, 1.54 (mean 1.82; controls 0 of 18).
The variant KSGCGVLYEGRNKNSVA | GASTRES | QNYHRLPLS showed 1.58, 1.44, 1.32, 1.19, 1.40, 1.04 (mean 1.33; controls 1 of 18).
The variant KQSQSVLYELRNKRSVA | DASTRES | QQYHRLPLS showed 0.62, 0.69, 0.39, 0.66, 0.40, 0.91 (mean 0.61; controls 0 of 18).
The variant HSSGSVLYPSRNKNSVR | NASTRES | QQYHRLPGS showed nd, nd, nd, nd, nd, nd (controls 0 of 18).
The variant HSSPSVLYESRNKNSVA | NASTRES | QQVHRLPLS showed 2.06, nd, nd, nd, nd, nd (controls 0 of 18).
The variant KSSISYLIESRNKNSVV | EASTRES | QQYHRLPLS showed nd, nd, nd, nd, nd, nd (controls 0 of 18).

The 3 strongest on average among those seen in every replicate, once more:

| CDR-L1 | CDR-L2 | CDR-L3 | replicates, log10 nM | mean log10 Kd (nM) | control signals |
|---|---|---|---|---|---|
| KSSQSWLYESRNKNSVA | GASTHES | QQYHRLPLS | -0.08, -0.21, 0.15, -0.47, 0.05, -0.17 | -0.12 | 0/18 |
| KSSHSVLFESRNKNSVA | DASTRES | QQYHRLPLS | 0.38, 0.09, 0.10, 0.12, 0.18, 0.19 | 0.18 | 2/18 |
| HESPSVDYESRNKNDVA | NASTRES | QQYHRLPLS | 0.33, 0.38, 0.07, 0.06, 0.14, 0.39 | 0.23 | 1/18 |